System: Met-1 tumors
Settings: ten day course, ~6 mg doxorubicin/kg iv; free doxorubicin versus saline, liposomes versus free doxorubicin

**Q.** Which tumor growth suppression does the source give for `COc1cccc2c1C(=O)c1c(O)c3c(c(O)c1C2=O)C[C@@](O)(C(=O)CO)C[C@@H]3O[C@H]1C[C@H](N)[C@H](O)[C@H](C)O1.Cl` [free doxorubicin, Doxorubicin hydrochloride] here?
**A.** showed a therapeutic effect

From patent US9844656B2, “Localization of agents at a target site with a composition and an energy source” (The Regents of the University of California, priority 2010, dated 2017)
